## scFv variants of Ab-95 (light chain) against a SARS-CoV-2 spike peptide

The measurements come from Engelhart et al. 2022 (doi:10.1038/s41597-022-01779-4) through the FLAb antibody collection.

Antigen: PDVDLGDISGINAS, a 14-residue peptide of the SARS-CoV-2 spike HR2 region.

Each scFv is VH, three GGGGS repeats, VL, as in the parent Ab-95, and differs from it in the CDRs of the light chain only.
VH: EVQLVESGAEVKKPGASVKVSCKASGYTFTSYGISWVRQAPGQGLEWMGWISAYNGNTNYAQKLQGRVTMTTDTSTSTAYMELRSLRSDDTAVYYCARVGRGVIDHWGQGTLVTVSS
VL: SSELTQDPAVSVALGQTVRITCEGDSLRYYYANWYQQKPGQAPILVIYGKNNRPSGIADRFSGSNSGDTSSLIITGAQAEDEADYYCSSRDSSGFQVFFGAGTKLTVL

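The starting antibody came from a phage panning campaign against this peptide. Variants in AAYL52 differ from the parent at up to three CDR positions; double and triple changes were sampled at random. AlphaSeq pools MATa yeast showing the antibodies with MATalpha yeast showing the peptide. Binding brings cells together so that they mate, and sequencing counts the barcode pairs among the diploids. The ratio of observed to expected reads was calibrated, replicate by replicate, on BCL2-family standards whose Kd was known from biolayer interferometry. The assay was run in three technical replicates.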

Positions count from residue 1 of the parent VL; G49Q puts Q in place of G.
This list gathers variants with a substitution at Q96 (VL, numbered from residue 1).
Values are apparent Kd, the geometric mean of the replicates that gave a signal; lower means stronger binding.
A pair that was not seen in any replicate is written "nd"; this usually means weak binding, but a binder can also be missed.

| changes | apparent Kd | replicates with signal | control signals |
|---|---|---|---|
| G49Q Q96K | 700 nM | 2 of 3 | 1 of 9 |
| N33Q N51G Q96Y | 3.0 µM | 3 of 3 | 3 of 9 |
| S26H S88I Q96T | 9.6 µM | 3 of 3 | 3 of 9 |
| N52Y G94S Q96S | nd | 0 of 3 | 0 of 9 |
| D25E Y31S Q96G | 130 nM | 3 of 3 | 3 of 9 |
| Y31T G49P Q96K | 5.5 µM | 1 of 3 | 3 of 9 |
| S26N S88A Q96P | nd | 0 of 3 | 2 of 9 |
| G24W S92L Q96E | 16 µM | 2 of 3 | 2 of 9 |
| S89H Q96N F98C | 3.6 µM | 3 of 3 | 4 of 9 |
| Y31L F95H Q96H | 650 nM | 3 of 3 | 4 of 9 |
| F95C Q96M F98G | 610 nM | 3 of 3 | 3 of 9 |
| E23I S88Y Q96D | 1.2 µM | 3 of 3 | 5 of 9 |
| R90W Q96K F98V | 600 nM | 3 of 3 | 2 of 9 |
| Y31C F95T Q96K | 190 nM | 3 of 3 | 2 of 9 |
| K50V N51E Q96A | 5.6 µM | 2 of 3 | 4 of 9 |
| A32N D91Q Q96H | 120 µM | 1 of 3 | 3 of 9 |
| E23A D25S Q96L | 160 nM | 3 of 3 | 7 of 9 |
| Y29T G94D Q96E | 260 nM | 3 of 3 | 6 of 9 |
| P54Y Q96V | 13 µM | 3 of 3 | 3 of 9 |
| A32Y F95H Q96A | nd | 0 of 3 | 0 of 9 |
| S92Y G94W Q96W | 4.8 µM | 2 of 3 | 5 of 9 |
| P54F F95A Q96M | 2.5 µM | 1 of 3 | 1 of 9 |
| Y29F G49Q Q96F | 10 µM | 2 of 3 | 2 of 9 |
| D25F D91W Q96M | 2.1 µM | 2 of 3 | 2 of 9 |
| E23Y S89R Q96G | 770 nM | 3 of 3 | 3 of 9 |
| S88W Q96S F98V | 4.2 µM | 3 of 3 | 3 of 9 |
| N52R Q96V F98S | 6.1 µM | 2 of 3 | 2 of 9 |
| G24I S92N Q96S | 32 µM | 3 of 3 | 4 of 9 |
| S92M Q96H V97N | 890 nM | 2 of 3 | 2 of 9 |
| G24K Q96L | 7.7 µM | 2 of 3 | 2 of 9 |
| K50S Q96V V97Y | 2.5 µM | 3 of 3 | 7 of 9 |
| S88D D91V Q96F | nd | 0 of 3 | 3 of 9 |
| L27H Q96G | 5.2 µM | 2 of 3 | 3 of 9 |
| K50Y F95Y Q96W | 18 µM | 1 of 3 | 2 of 9 |
| S55V G94P Q96T | 640 nM | 3 of 3 | 3 of 9 |
| G24L D91M Q96H | 20 µM | 3 of 3 | 4 of 9 |
| G49N N52F Q96T | 61 µM | 1 of 3 | 0 of 9 |
| S26V G49Q Q96S | nd | 0 of 3 | 0 of 9 |
| A32C Q96H | 480 nM | 3 of 3 | 0 of 9 |
| R53M Q96H | 3.0 µM | 3 of 3 | 3 of 9 |
| L27Q K50W Q96A | nd | 0 of 3 | 2 of 9 |
| Y30D S92P Q96G | 180 nM | 3 of 3 | 1 of 9 |
| S55A G94N Q96N | 240 nM | 3 of 3 | 5 of 9 |
| Y30H F95R Q96C | 68 nM | 3 of 3 | 5 of 9 |
| E23L Y31D Q96N | 14 nM | 3 of 3 | 1 of 9 |
| G24Q Q96C | 7.8 µM | 2 of 3 | 3 of 9 |
| Y29D S92R Q96W | 450 nM | 3 of 3 | 3 of 9 |
| G94E Q96N F98Q | 9.9 µM | 2 of 3 | 2 of 9 |
| N33L S55T Q96P | 6.5 µM | 1 of 3 | 3 of 9 |

Excerpt, the final 3 entries:

| changes | apparent Kd | replicates with signal | control signals |
|---|---|---|---|
| Y29D S92R Q96W | 450 nM | 3 of 3 | 3 of 9 |
| G94E Q96N F98Q | 9.9 µM | 2 of 3 | 2 of 9 |
| N33L S55T Q96P | 6.5 µM | 1 of 3 | 3 of 9 |

As a blank, each scFv also met three strains without target: over library AAYL52, 28% of these pairings were detected, typically at 8.2 µM and seldom below 800 nM. Also given: how often the same scFv was detected with the empty control strains.